# Antibody variant affinities, Ab-14 light chain, assay 1

Target peptide (SARS-CoV-2 spike, HR2 region): PDVDLGDISGINAS

Ab-14 is the parent antibody, in scFv form: VH, then a (GGGGS)3 linker, then VL. The heavy chain is unchanged in all variants.
VH: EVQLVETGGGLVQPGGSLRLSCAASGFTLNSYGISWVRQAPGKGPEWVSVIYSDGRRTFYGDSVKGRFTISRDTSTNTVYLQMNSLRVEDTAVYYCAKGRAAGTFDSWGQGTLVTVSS
VL: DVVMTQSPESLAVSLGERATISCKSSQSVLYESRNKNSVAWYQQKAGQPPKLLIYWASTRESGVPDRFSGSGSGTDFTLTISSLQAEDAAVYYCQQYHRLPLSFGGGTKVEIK

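The parent was found by panning a naive human phage display library on the peptide. In library AAYL50, one, two or three CDR residues were substituted; doubles and triples were drawn at random. AlphaSeq pools MATa yeast showing the antibodies with MATalpha yeast showing the peptide. Pairs that bind mate more often; barcode pairs of the diploids are counted by sequencing. Scores were corrected for input abundance and mapped to Kd with protein pairs of known affinity run in the same pool. Each pool was mated in three replicate cultures.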

The parent's light chain CDRs are KSSQSVLYESRNKNSVA, WASTRES, QQYHRLPLS; each variant's own CDRs replace them letter for letter.
Scale: log10 of Kd in nM, estimated from mating counts; low values are strong binders.
Replicates are averaged; those with no signal do not enter the mean.
Where no diploid with the target was found in that replicate, the entry reads "ND": below detection, most likely a poor binder, though not proof of it.
Empty control strains, which show no peptide, gave a signal in 18% of pairings with library AAYL50; the median was 4.19 and 95% of these signals were weaker than 2.99. No background was subtracted. For each scFv, signals with the empty controls are counted beside the result.

For KSRQSVLYESRNKNSVA | WASDRSS | QQYHRLPLS, the assay gave 2.38, 2.11, 2.37 (mean 2.28; controls 1 of 9).
For KSSQSVLYPSRSKNSFA | WASTRES | QQYHRLPLS, the assay gave 3.85, ND, ND (controls 1 of 9).
For QVSQSVLYESRNKNSVA | WASTRES | QQYHGLPLS, the assay gave -0.04, 0.28, 0.05 (mean 0.10; controls 5 of 9).
For KSSQSVDYESRNKNSVA | WASTRES | QYYHRLDLS, the assay gave 1.29, 1.49, 1.64 (mean 1.47; controls 1 of 9).
For KSSQSVLYESSNKNSVA | YASTRES | QQYHRLPLS, the assay gave 0.27, 0.48, 0.23 (mean 0.33; controls 3 of 9).
For KSEQSVLYESRNKNLVA | WASTRES | QQYHRGPLS, the assay gave ND, ND, ND (controls 0 of 9).
For KSSQSVLYESRNKDSVA | WASTRES | QQNHRLPLS, the assay gave 1.84, 1.72, 1.56 (mean 1.71; controls 2 of 9).
For KSSQSVLYEIRDKNSVA | WASTRES | QQYHRLPLS, the assay gave 2.98, 2.56, 2.45 (mean 2.67; controls 2 of 9).
For KSSQSVLYESRIKESVA | WASTRES | KQYHRLPLS, the assay gave ND, ND, ND (controls 2 of 9).
For KSSQSVLYESRKKNSVA | WALTRES | QQYHNLPLS, the assay gave ND, ND, ND (controls 2 of 9).
For KSSQSVFYESRNKNSVA | WASTFES | QQYNRLPLS, the assay gave ND, ND, ND (controls 1 of 9).
For RSSQSVLYESRNKNSVK | WASTRES | QQYHRLRLS, the assay gave ND, ND, ND (controls 3 of 9).
For KSSDSVLYESRNTNSVA | WASTRES | QQYSRLPLS, the assay gave 0.34, 0.50, 0.45 (mean 0.43; controls 1 of 9).
For HSSQSVLYESRNKNSVA | WAQTRES | QQYHRFPLS, the assay gave 1.71, 1.61, 1.78 (mean 1.70; controls 1 of 9).
For KSSQSGLYESRNKPSVP | WASTRES | QQYHRLPLS, the assay gave 3.29, ND, ND (controls 1 of 9).
For KSSQSVLDESRNKHSVA | PASTRES | QQYHRLPLS, the assay gave 3.55, 3.15, 4.32 (mean 3.67; controls 7 of 9).
For KSSQSVLYESRNKNSVA | WASTRES | QQCHRADLS, the assay gave 1.33, 1.41, 1.22 (mean 1.32; controls 5 of 9).
For KSSQTVLYESRNKNSVA | WASTKES | QQYHRLHLS, the assay gave 1.05, 1.38, 1.67 (mean 1.37; controls 0 of 9).
For RSSQSVLYESRNKNSVA | WASTRES | QYYQRLPLS, the assay gave 1.22, 1.57, 1.25 (mean 1.34; controls 0 of 9).
For KSSQSVLYESRNKYSVA | WARTRES | QTYHRLPLS, the assay gave 3.32, 3.66, 2.97 (mean 3.31; controls 1 of 9).
For KSSQWVLCESRNKNSVA | LASTRES | QQYHRLPLS, the assay gave 3.10, 2.12, 3.11 (mean 2.78; controls 5 of 9).
For KSSQSVLYESRNDNSVA | WASFRES | QMYHRLPLS, the assay gave 3.70, 3.19, 3.72 (mean 3.54; controls 4 of 9).
For SSSQSVLYESFNNNSVA | WASTRES | QQYHRLPLS, the assay gave 1.82, 1.69, 1.93 (mean 1.81; controls 7 of 9).
For KSSQSVLYESRSKNSQA | WASTRES | PQYHRLPLS, the assay gave ND, 5.21, ND (controls 5 of 9).
For KSSQSVLYEHRNKNSVA | WASTREK | QQYPRLPLS, the assay gave 3.53, 3.18, 3.53 (mean 3.41; controls 9 of 9).
For KSSQSVLYESRAKNSVA | WASTGES | QQYIRLPLS, the assay gave ND, ND, ND (controls 0 of 9).
For KSSQSVLYESNNKNSVA | WASTRES | QQEVRLPLS, the assay gave ND, ND, ND (controls 0 of 9).
For KSSGSVLYESRNKNDVA | WASYRES | QQYHRLPLS, the assay gave 3.63, 2.67, 3.32 (mean 3.21; controls 6 of 9).
For KSSQSVLYESICKNSVA | WASTRES | QQYHRLFLS, the assay gave ND, ND, ND (controls 2 of 9).
For KSSQSVLYESRNKNSVA | WASTREC | QFYHRLPLS, the assay gave 1.99, 1.83, 1.98 (mean 1.93; controls 3 of 9).
For KSSQSVLYESRNKNSVA | WTSTREC | QQYHRLPLS, the assay gave 1.52, 1.30, 2.10 (mean 1.64; controls 2 of 9).
For KYSQSVLKESRNKNSVA | WASTRES | QQYHRQPLS, the assay gave ND, ND, ND (controls 0 of 9).
For KSSVSVLYESRNKNSKA | WASTRES | QQYHRGPLS, the assay gave ND, ND, ND (controls 1 of 9).
For KSSQSVLYESRNRNSVD | WASFRES | QQYHRLPLS, the assay gave ND, ND, ND (controls 0 of 9).
For KSSGSVLYPSRNKNSVA | WASTRES | QQSHRLPLS, the assay gave 0.86, 0.92, 0.92 (mean 0.90; controls 5 of 9).
For KMSQSVLYESRNKNSVA | WASTRES | QQYHRLKLS, the assay gave -0.12, 0.20, 0.17 (mean 0.08; controls 2 of 9).
For ESSPSVLYESRNKNSVA | WASTRES | QQYHRLHLS, the assay gave ND, ND, ND (controls 0 of 9).

Source: Engelhart et al. 2022 (doi:10.1038/s41597-022-01779-4), MIT Lincoln Laboratory and A-Alpha Bio; data file from the FLAb repository.